Columns and labels:
Homo sapiens [1] = species: Homo sapiens; assay: Selectivity ratio of human NPYY5 receptor to NPYY2 receptor (unknown origin)
Homo sapiens [2] = species: Homo sapiens; assay: Selectivity ratio of human NPYY4 receptor to NPYY2 receptor (unknown origin)
Homo sapiens [3] = species: Homo sapiens; assay: Selectivity ratio of human NPYY1 receptor to NPYY2 receptor (unknown origin)

Measured: Selectivity ratio

CC(=O)N1CCc2ccc(N(C(=O)/C=C/c3cccc(C#N)c3)C3CCN(CCC4CCCC4)CC3)cc21
> 100: all assays above

— ChEMBL document CHEMBL3102719, “Ligands of the neuropeptide Y Y2 receptor” (Bioorg Med Chem Lett, 2014)
